Source: patent publication US20110263650A1 (priority 2007, published 2011)

Key:
[1] = tested on: KB-V1 multidrug-resistant subclone of KB-3-1 (DSMZ ACC 149)
[2] = tested on: KB-V1 multidrug-resistant subclone of KB-3-1 (DSMZ ACC 149); test: cells; details: Homo sapiens
[3] = KB-V1, read-out: IC50 KB-V1 w/o verapamil
[4] = KB-V1, read-out: IC50 KB-V1 w/verapamil

SMILES	Factor: quotient of the IC50 values of KB-V1 without verapamil and in presence of verapamil [1]	IC50 [2, 3] [ng/mL]	IC50 [2, 4] [ng/mL]	Factor: quotient of the IC50 values of KB-V1 without verapamil and in presence of verapamil ([1]; KB-V1)
CC[C@H](C)[C@H](NC(=O)[C@H]1CCCCN1C)C(=O)N(C)[C@H](C[C@@H](OC(C)=O)c1nc(C(=O)N[C@@H](Cc2ccccc2)C[C@H](C)C(=O)O)cs1)C(C)C (stereo in doubt) [Analogue 10, 4-({2-[1-Acetoxy-4-methyl-3-(methyl-{3-methyl-2-[(1-methylpiperidine-2-carbonyl)-amino]-pentanoyl}-amino)-pentyl]-thiazole-4-carbonyl}-amino)-2-methyl-5-phenyl-pentanoic acid]	170	3.9 (≈ 5.36 nM)	0.023 (≈ 0.0316 nM)	–
CC[C@H](C)[C@H](NC(=O)[C@H]1CCCCN1C)C(=O)N(COC(=O)CC(C)C)[C@H](C[C@@H](OC(C)=O)c1nc(C(=O)N[C@@H](Cc2ccccc2)C[C@H](C)C(=O)O)cs1)C(C)C [Analogue 1, Tubulysin D, reference compound]	–	–	–	9
CC[C@H](C)[C@H](NC(=O)[C@H]1CCCCN1C)C(=O)N(COC(=O)CC(C)C)[C@H](C[C@@H](OC(C)=O)c1nc(C(=O)NCCc2ccccc2)cs1)C(C)C [Analogue 2, 3-methyl-butyric acid ({1-[2-acetoxy-2-(4-phenethylcarbamoylthiazol-2-yl)-ethyl]-2-methyl-propyl}-{3-methyl-2-[(1-methyl-piperidine-2-carbonyl)-amino]-pentanoyl}-amino)-methyl ester]	65	13 (≈ 17.5 nM)	0.2 (≈ 0.27 nM)	–
CC[C@H](C)[C@H](NC(=O)[C@H]1CCCCN1C)C(=O)N(COC(=O)CC(C)C)[C@H](C[C@@H](OC(C)=O)c1nc(C(=O)NC)cs1)C(C)C [Analogue 4, 3-methyl-butyric acid ({1-[2-acetoxy-2-(4-methylcarbamoyl-thiazol-2-yl) -ethyl]-2-methyl-propyl}-{3-methyl-2-[(1-methyl-piperidine-2-carbonyl)-amino]pentanoyl}-amino)-methyl ester]	61	11 (≈ 16.9 nM)	0.18 (≈ 0.276 nM)	–
CC[C@H](C)[C@H](N=[N+]=[N-])C(=O)N(COC(=O)CC(C)C)[C@H](C[C@@H](OC(C)=O)c1nc(C(=O)N[C@@H](Cc2ccccc2)C[C@H](C)C(=O)O)cs1)C(C)C [Analogue 8, 4-[(2-{1-acetoxy-3-[(2-azido-3-metlzyl-pentanoyl)-(3-methylbutyryloxymethyl)-amino]-4-methyl-pentyl}-thiazole-4-carbonyl)-amino]-2-methyl-5-phenyl-pentanoic acid]	129	150 (≈ 206 nM)	1.16 (≈ 1.59 nM)	–

In brackets after ≈: the same amount, converted by molar mass. Read-outs that look alike come from different tables or passages of the source.
